Tests used:
[1] = system: K562 human leukemia cells; assay: cells; conditions: K562, 20 h, read-out: IC50 ± SD K562
[2] = system: HCT15 cells, the drug resistant cell line of HCT116; assay: cells; conditions: Homo sapiens, HCT-15, 72 h, read-out: IC50 HCT15

| Compound | IC50 [1] [nM] | IC50 [2] [nM] |
| --- | --- | --- |
| COc1cc(C(=O)c2ccn(-c3cccc(NS(C)(=O)=O)c3)c2)cc(OC)c1OC [Compound 28, N-(3-(3-(3,4,5-Trimethoxybenzoyl)-1H-pyrrol-1-yl)phenyl)-methanesulfonamide] | 19 ± 8 | – |
| COc1cc(C(=O)c2ccn(-c3ccccc3)c2)cc(OC)c1OC [Compound 4, (1-Phenyl-1H-pyrrol-3-yl)-(3,4,5-trimethoxyphenyl)methanone] | – | 39 ± 4 |
